Values quoted from earlier work as cited in patent US9937154B2, “Use of telmisartan to prevent and treat graft versus host disease and other alloimmune and autoimmune diseases” (Hackensack University Medical Center, priority 2015, dated 2018).

System: transplant patients (IT GVHD)
Conditions: at 1 year, vs. historical controls; not statistically significant; cited from earlier work

Substance: maraviroc
- increase in cancer relapse: ~20%
